From patent US8999940B2, “Analogues of glucose-dependent insulinotropic polypeptide (GIP) modified at N-terminal” (Ipsen Pharma S.A.S., priority 2008, dated 2015) come the findings set out here.

pKi: −log10 of the molar value.

Data set [1] is described as follows: Rat plasma half-life assay. The format is in vitro ADME. Particulars: 37° C., LC-MS, read-out: Rat Plasma T½ (converted). On the procedure: (§1) B. Human and Rat Plasma Half-Life Assay
(§2) GIP peptide (50 μl 1 mg/ml) was added to 450 μl plasma (human or rat), vertexed briefly and incubated at 37° C. 50 μl was removed at various times, like at 0, 1, 2, 3, 4, 8, 24, 32, 48, 56, 72 hours, mixed with 5 μl formic acid and 150 μL acetonitrile in a microcentrifuge tube, vertexed, and centrifuged for 10 minutes at 10 K rpm. The supernatant was transferred to an injection vial and analyzed by LC-MS. The LC-MS system consisted of an API4000 mass spectrometer with an ESI probe. Positive ion mode and full scan detection were used. HPLC separation was carried out on a Luna 3μ. C8 (2), 2×30 mm column with a gradient from 90% A to 90% B in 10 minutes at a flow rate of 0.3 ml/min. Buffer A was 1% formic acid in water and buffer B was 1% formic acid acetonitrile.

The target of data set [2] is T1, human recombinant GIP receptor (Homo sapiens, UniProt P48546).
T1 construct: expressed in transfected cells; host or cells: CHO-K1 clonal cells (membrane preparation)
T1 sequence (P48546 22-466): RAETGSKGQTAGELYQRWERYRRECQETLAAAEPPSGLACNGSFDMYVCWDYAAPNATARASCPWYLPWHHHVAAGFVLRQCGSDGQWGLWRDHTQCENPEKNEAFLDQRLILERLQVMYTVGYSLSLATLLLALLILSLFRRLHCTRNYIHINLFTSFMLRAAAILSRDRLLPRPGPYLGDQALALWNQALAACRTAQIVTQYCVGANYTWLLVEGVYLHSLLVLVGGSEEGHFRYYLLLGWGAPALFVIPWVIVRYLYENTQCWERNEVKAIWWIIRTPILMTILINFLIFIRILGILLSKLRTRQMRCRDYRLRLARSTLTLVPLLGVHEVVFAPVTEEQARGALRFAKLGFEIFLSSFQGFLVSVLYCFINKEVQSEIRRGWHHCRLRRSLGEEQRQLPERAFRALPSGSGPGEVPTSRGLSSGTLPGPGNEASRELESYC
Description: In vitro hGIP receptor binding assay. Here is the method: A. In Vitro hGIP Receptor Binding Assay […] The incubations were terminated by rapid filtration through GF/C filters (pre-soaked in 0.5% polyethylenimine) using a Brandel filtration manifold. Each tube and filter were then washed three times with 5-ml aliquots of ice-cold buffer. Specific binding was defined as the total radioligand bound minus that bound in the presence of 1000 nM GIP.

Data set [3] is described as follows: Human plasma half-life assay. The format is in vitro ADME. The note with it: 37° C., LC-MS, read-out: Human Plasma T½ (converted). Here is the method:
as §1, §2

Turning to `CCCC[C@H](NC(=O)[C@H](C)NC(=O)[C@@H](NC(=O)C1(NC(=O)[C@H](Cc2ccc(O)cc2)NC(=O)[C@H](CC(=O)O)NC(=O)[C@H](CO)NC(=O)[C@@H](NC(=O)[C@H](Cc2ccccc2)NC(=O)[C@@H](NC(=O)CNC(=O)[C@H](CCC(=O)O)NC(=O)C(C)(C)NC(=O)[C@@H](N)Cc2ccc(O)c(Cl)c2)[C@@H](C)O)[C@@H](C)CC)CCCC1)[C@@H](C)CC)C(=O)N[C@@H](CC(=O)O)C(=O)N[C@@H](CCCCN)C(=O)N[C@H](C(=O)N[C@@H](Cc1c[nH]cn1)C(=O)N[C@@H](CCC(N)=O)C(=O)N[C@@H](CCC(N)=O)C(=O)N[C@@H](CC(=O)O)C(=O)N[C@@H](Cc1ccccc1)C(=O)N[C@H](C(=O)N[C@@H](CC(N)=O)C(=O)N[C@@H](Cc1c[nH]c2ccccc12)C(=O)N[C@@H](CC(C)C)C(=O)N[C@@H](CC(C)C)C(=O)N[C@@H](C)C(=O)N[C@@H](CCC(N)=O)C(=O)N[C@@H](CCCCN)C(=O)NCC(=O)N[C@@H](CCCCN)C(=O)N[C@@H](CCCCN)C(=O)N[C@@H](CC(N)=O)C(=O)N[C@@H](CC(=O)O)C(=O)N[C@@H](Cc1c[nH]c2ccccc12)C(=O)N[C@@H](CCCCN)C(=O)N[C@@H](Cc1c[nH]cn1)C(=O)N[C@@H](CC(N)=O)C(=O)N[C@H](C(=O)N[C@H](C(=O)N[C@@H](CCC(N)=O)C(=O)N[C@@H](CS)C(=O)O)[C@@H](C)O)[C@@H](C)CC)C(C)C)[C@@H](C)CC` [Example 85, (3Cl-Tyr^1, Aib^2, A5c^11, Nle^14, Cys^43)hGIP(1-43)-OH], the figures for the half-life at 0.1 mg/ml in data set [1] and in data set [3] were 11.5 h and 9.4 h, respectively. Moreover, in data set [2], the pKi is 9.08.

One may read the pKi as the negative decadic logarithm of the Ki, by convention in mol/L.
